Measurements reported in ChEMBL document CHEMBL6182847, “Design, synthesis, and biological evaluation of novel aminopyrimidine derivatives as EGFR inhibitors” (Bioorg Med Chem Lett, 2025).

Test: Selectivity ratio of IC50 for inhibition of wild-type EGFR (unknown origin) to IC50 for inhibition of EGFR L858R/T790M/C797S mutant (unknown origin)

Ratio IC50 | Compound
7.15 | COc1cc(N2CCC(N3CCN(C)CC3)CC2)c(C)cc1Nc1nccc(-n2cc(NC(=O)C=C(C)C)cn2)n1
6.2 | C=CC(=O)Nc1cnn(-c2ccnc(Nc3cc(C)c(N4CCC(N5CCN(C)CC5)CC4)cc3OC)n2)c1
8.99 | COc1cc(N2CCC(N3CCN(C)CC3)CC2)c(C)cc1Nc1nccc(-n2cc(NC(=O)C3CC3)cn2)n1
> 53.3 | COc1cc(N2CCC(N3CCN(C)CC3)CC2)c(C)cc1Nc1ncc(Br)c(-n2ccc(-c3ccccc3NS(=O)(=O)C3CC3)n2)n1
8.43 | COc1cc(N2CCC(N3CCN(C)CC3)CC2)c(C)cc1Nc1nccc(-n2cc(NS(=O)(=O)C3CC3)cn2)n1
